Data: article PMC7723054
This is one part of the list.

T1: LIN28A (human?, UniProt Q9H9Z2 1-209)
T1 sequence: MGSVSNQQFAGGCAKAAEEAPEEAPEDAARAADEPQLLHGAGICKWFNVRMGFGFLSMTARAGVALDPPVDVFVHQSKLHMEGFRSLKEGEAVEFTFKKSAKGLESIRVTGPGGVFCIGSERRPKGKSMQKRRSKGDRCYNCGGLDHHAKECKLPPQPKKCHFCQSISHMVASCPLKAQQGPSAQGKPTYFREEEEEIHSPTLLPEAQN

T2: CIRBP (Homo sapiens, UniProt Q14011 1-172)
T2 sequence: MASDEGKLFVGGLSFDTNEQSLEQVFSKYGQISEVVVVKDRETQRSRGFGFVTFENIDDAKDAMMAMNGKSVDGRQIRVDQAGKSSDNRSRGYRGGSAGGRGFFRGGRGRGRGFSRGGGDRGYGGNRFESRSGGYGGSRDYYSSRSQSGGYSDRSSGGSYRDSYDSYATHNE

T3: DHX36 (Homo sapiens, UniProt Q9H2U1 1-1008)
T3 sequence: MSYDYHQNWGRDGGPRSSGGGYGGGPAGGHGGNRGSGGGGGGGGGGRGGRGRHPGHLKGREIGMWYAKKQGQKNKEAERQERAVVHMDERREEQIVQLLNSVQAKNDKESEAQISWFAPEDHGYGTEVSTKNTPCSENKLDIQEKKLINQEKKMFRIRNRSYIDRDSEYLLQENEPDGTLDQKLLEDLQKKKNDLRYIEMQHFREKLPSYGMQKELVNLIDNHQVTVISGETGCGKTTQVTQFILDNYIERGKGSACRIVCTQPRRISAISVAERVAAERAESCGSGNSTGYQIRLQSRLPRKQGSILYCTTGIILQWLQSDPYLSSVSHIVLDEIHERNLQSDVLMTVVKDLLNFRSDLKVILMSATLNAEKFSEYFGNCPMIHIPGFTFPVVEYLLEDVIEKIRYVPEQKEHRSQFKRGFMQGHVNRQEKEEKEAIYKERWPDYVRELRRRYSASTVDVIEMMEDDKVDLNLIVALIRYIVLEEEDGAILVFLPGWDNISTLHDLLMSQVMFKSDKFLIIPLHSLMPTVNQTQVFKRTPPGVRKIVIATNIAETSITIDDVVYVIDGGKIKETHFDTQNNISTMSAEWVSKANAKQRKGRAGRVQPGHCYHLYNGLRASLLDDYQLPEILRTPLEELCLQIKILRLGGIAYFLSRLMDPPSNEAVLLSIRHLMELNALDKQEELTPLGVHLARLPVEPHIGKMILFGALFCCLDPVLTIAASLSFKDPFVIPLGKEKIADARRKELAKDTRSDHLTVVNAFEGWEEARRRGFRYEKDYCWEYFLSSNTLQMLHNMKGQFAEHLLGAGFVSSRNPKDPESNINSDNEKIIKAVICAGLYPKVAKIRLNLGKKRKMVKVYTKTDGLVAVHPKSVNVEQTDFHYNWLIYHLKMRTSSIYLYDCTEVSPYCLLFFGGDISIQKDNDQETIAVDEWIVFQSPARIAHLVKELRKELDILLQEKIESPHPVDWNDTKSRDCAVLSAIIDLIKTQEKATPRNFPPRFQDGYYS

B1: hsa-mir-708 (structured_RNA)
RNA: GGGACAGGAGGAGACCCCUGAACCUUUUGGUGUACGAAGUUUCAGCGCUGGGGGUAAAUGACUUGCACAUGAACACAACGCUGAAGCUUCGUGCAC
B2: hsa-mir-6075 (structured_RNA)
RNA: GGGACCCACCGCUAGGAGCAGAGGAUUAGGUGUACGAAGUUUCAGCCCUGCCUGCCCUCCAGGUCAUGUUCCAGUGUCCCACAGAUGCAGCACCACGGGCUGAAGCUUCGUGCAC
B3: hsa-mir-6509 (structured_RNA)
RNA: GGGAGUUCCACAAGACGAGGGUGACUCCGGUGUACGAAGUUUCAGCGGAACACUAUAUUAAUCAGGUUUCCGCUGAAGCUUCGUGCAC
B4: hsa-mir-3942 (structured_RNA)
RNA: GGGAGUUACGCGCACGAGCAUACGUUGAGGUGUACGAAGUUUCAGCGAAAUAGGCUGCGAAGAUAACAGUAUUUCGCUGAAGCUUCGUGCAC
B5: hsa-mir-4662a (structured_RNA)
RNA: GGGACUAUAAGAGGGGCUCACGUGAACCGGUGUACGAAGUUUCAGCCUUUAGCUAUUCUGAAUGCCUAAAGGCUGAAGCUUCGUGCAC
B6: hsa-mir-4451 (structured_RNA)
RNA: GGGAAUGUGACCCUCCUCCCGCAUAGUAGGUGUACGAAGUUUCAGCGCUCCCAACCAACCACUUCCACAUGUUUUGCUGGUGCUGAAGCUUCGUGCAC
B7: hsa-mir-4760 (structured_RNA)
RNA: GGGAGCUGGGCUAAUGGUGUCAAAUCCCGGUGUACGAAGUUUCAGCAGUUAGAAUUCUUAAGUAUCAAAACUAAAUGCUGAAGCUUCGUGCAC
B8: hsa-mir-640 (structured_RNA)
RNA: GGGAACACGCUGGAAAGGACGAUUGUUAGGUGUACGAAGUUUCAGCUCAGACACAUCAGAUCCCUUAUCUGUAAAAUGGGCAUGAGCUGAAGCUUCGUGCAC
B9: hsa-mir-27a (structured_RNA)
RNA: GGGAAGACCUCGGGGAGAACGCAAAUCUGGUGUACGAAGUUUCAGCUGAGCAGGGUCCACACCAAGUCGUGUUCAGCUGAAGCUUCGUGCAC
B10: hsa-mir-1225 (structured_RNA)
RNA: GGGAACGUACAUGAACUGCGCAUAAGAUGGUGUACGAAGUUUCAGCGGGGAGAGGGACACGCCCUGGGCUCUGCCCAGGGUGCAGCCGGACUGACUGAGGCUGAAGCUUCGUGCAC
B11: hsa-mir-642a (structured_RNA)
RNA: GGGAAUCAAAGGCACGGUGUAUCUAGCAGGUGUACGAAGUUUCAGCGUCUUGGGGUGGGGGAUCAAGACGCUGAAGCUUCGUGCAC
B12: hsa-mir-6786 (structured_RNA)
RNA: GGGAACCGCACGUUAAGGGACAUUUAGCGGUGUACGAAGUUUCAGCGCGUCACGUGCACCCAAGUGACGCGCUGAAGCUUCGUGCAC
B13: hsa-mir-6751 (structured_RNA)
RNA: GGGAUACUAAGUAACAGGGCCCACUCCGGGUGUACGAAGUUUCAGCGUGUCUGGCCCCAGCAGCCCAGACUGCUGAAGCUUCGUGCAC
B14: hsa-mir-26a-1 (structured_RNA)
RNA: GGGAGUACUAGCAGAAGCUGGGCUCACCGGUGUACGAAGUUUCAGCUAGGCUGUGCAGGUCCCAAUGGGCCUAGCUGAAGCUUCGUGCAC
B15: hsa-mir-126 (structured_RNA)
RNA: GGGCACAUCUACCAUGGAAGAUACGACAGGUGUACGAAGUUUCAGCACGCGCUGUGACACUUCAAACUCGUGCUGAAGCUUCGUGCAC
B16: hsa-mir-1233-2_1233-1 (structured_RNA)
RNA: GGGAACGAUCGAGCCGUACCAUGGAGACGGUGUACGAAGUUUCAGCGGCAGGGGGAGCUGCAGGGCUAUGGGAGGGGCCCCAGCGUCUGAGCUGAAGCUUCGUGCAC
B17: hsa-mir-559 (structured_RNA)
RNA: GGGAUGUAUCCCCGUCACGCCUAAUUCGGGUGUACGAAGUUUCAGCAAAAUUACUUUUGGUAAAUACAGUUUUGCUGAAGCUUCGUGCAC
B18: hsa-mir-8073 (structured_RNA)
RNA: GGGAAUGCAAGGGGCACUCAAAAGCACAGGUGUACGAAGUUUCAGCUCGUCAGUGUUUGAGCUGAAGCUUCGUGCAC
B19: hsa-mir-29a (structured_RNA)
RNA: GGGACUGCGACAUGAGACAUUGUCUAACGGUGUACGAAGUUUCAGCUUCAGAGUCAAUAUAAUUUUCUAGGCUGAAGCUUCGUGCAC
B20: hsa-mir-6832 (structured_RNA)
RNA: GGGAAGUGAGGUAUGGAAUUUGACUAGGGGUGUACGAAGUUUCAGCGGGUCAGUGGCAGAGCCAGGCAGAUGCUGACCCGCUGAAGCUUCGUGCAC
B21: hsa-mir-892a (structured_RNA)
RNA: GGGAAAAGACAGACCACGAGUCGACCAUGGUGUACGAAGUUUCAGCAGUCACUUACACUACAUGUCACUGCUGAAGCUUCGUGCAC
B22: hsa-mir-152 (structured_RNA)
RNA: GGGAACUCGGUAGAGCCGCACGAAAUGUGGUGUACGAAGUUUCAGCCCGACUCGGGCUCUGGAGCAGUCGCUGAAGCUUCGUGCAC

How the values were obtained:
Assay in all cases: FOREST: bead pull-down of RNA structure library v1, barcode microarray; U1A/LIN28A: 20 mM HEPES pH 7.5, 80 mM KCl, 20 mM NaCl, 10% glycerol, 2 mM DTT, 0.1 ug/uL BSA, 4 C; BG4/CIRBP/DHX36: 10 mM Tris-HCl pH 7.5, 100 mM KCl (or LiCl),; high values mean tight binding
U1A = U1A (Homo sapiens, UniProt P09012)
LIN28A = target: T1, LIN28A
CIRBP = target: T2, CIRBP
DHX36 = target: T3, DHX36

Binder	binding signal (U1A)	binding signal (LIN28A)	binding signal (CIRBP)	binding signal (DHX36)
B1	2.35 z-score	-0.0985 z-score	-0.742 z-score	0.462 z-score
B2	0.798 z-score	0.792 z-score	0.449 z-score	1.24 z-score
B3	0.834 z-score	1.3 z-score	-0.108 z-score	-0.0241 z-score
B4	0.82 z-score	2.31 z-score	-0.221 z-score	0.973 z-score
B5	0.82 z-score	-1.74 z-score	-0.565 z-score	-0.251 z-score
B6	0.822 z-score	-0.857 z-score	-0.808 z-score	-0.52 z-score
B7	0.799 z-score	0.345 z-score	0.724 z-score	-0.176 z-score
B8	0.813 z-score	0.92 z-score	-0.5 z-score	0.546 z-score
B9	0.807 z-score	-0.459 z-score	-0.326 z-score	-0.214 z-score
B10	0.815 z-score	0.666 z-score	1.05 z-score	1.54 z-score
B11	0.843 z-score	1.81 z-score	1.56 z-score	2.98 z-score
B12	4.1 z-score	-1.39 z-score	-0.5 z-score	-0.631 z-score
B13	0.82 z-score	0.304 z-score	-0.409 z-score	0.0849 z-score
B14	0.795 z-score	-0.849 z-score	-1.37 z-score	-0.79 z-score
B15	0.84 z-score	0.944 z-score	-0.567 z-score	1.27 z-score
B16	0.827 z-score	2.51 z-score	0.572 z-score	3.25 z-score
B17	0.796 z-score	-1.11 z-score	-1.41 z-score	-0.661 z-score
B18	0.846 z-score	0.317 z-score	0.0495 z-score	0.816 z-score
B19	0.831 z-score	0.328 z-score	-0.848 z-score	-0.319 z-score
B20	0.813 z-score	0.955 z-score	1.04 z-score	1.03 z-score
B21	2.29 z-score	-0.273 z-score	0.585 z-score	0.227 z-score
B22	0.825 z-score	-0.653 z-score	0.16 z-score	-0.618 z-score
